From ChEMBL document CHEMBL1154600, “Knowledge-based characterization of similarity relationships in the human protein-tyrosine phosphatase family for rational inhibitor design” (J Med Chem, 2009)

Sequences of proteins named here, by UniProt entry; tags and fusion partners are left off. A change or cut given only in a name is not applied to a line headed by its entry.
UniProt P23467: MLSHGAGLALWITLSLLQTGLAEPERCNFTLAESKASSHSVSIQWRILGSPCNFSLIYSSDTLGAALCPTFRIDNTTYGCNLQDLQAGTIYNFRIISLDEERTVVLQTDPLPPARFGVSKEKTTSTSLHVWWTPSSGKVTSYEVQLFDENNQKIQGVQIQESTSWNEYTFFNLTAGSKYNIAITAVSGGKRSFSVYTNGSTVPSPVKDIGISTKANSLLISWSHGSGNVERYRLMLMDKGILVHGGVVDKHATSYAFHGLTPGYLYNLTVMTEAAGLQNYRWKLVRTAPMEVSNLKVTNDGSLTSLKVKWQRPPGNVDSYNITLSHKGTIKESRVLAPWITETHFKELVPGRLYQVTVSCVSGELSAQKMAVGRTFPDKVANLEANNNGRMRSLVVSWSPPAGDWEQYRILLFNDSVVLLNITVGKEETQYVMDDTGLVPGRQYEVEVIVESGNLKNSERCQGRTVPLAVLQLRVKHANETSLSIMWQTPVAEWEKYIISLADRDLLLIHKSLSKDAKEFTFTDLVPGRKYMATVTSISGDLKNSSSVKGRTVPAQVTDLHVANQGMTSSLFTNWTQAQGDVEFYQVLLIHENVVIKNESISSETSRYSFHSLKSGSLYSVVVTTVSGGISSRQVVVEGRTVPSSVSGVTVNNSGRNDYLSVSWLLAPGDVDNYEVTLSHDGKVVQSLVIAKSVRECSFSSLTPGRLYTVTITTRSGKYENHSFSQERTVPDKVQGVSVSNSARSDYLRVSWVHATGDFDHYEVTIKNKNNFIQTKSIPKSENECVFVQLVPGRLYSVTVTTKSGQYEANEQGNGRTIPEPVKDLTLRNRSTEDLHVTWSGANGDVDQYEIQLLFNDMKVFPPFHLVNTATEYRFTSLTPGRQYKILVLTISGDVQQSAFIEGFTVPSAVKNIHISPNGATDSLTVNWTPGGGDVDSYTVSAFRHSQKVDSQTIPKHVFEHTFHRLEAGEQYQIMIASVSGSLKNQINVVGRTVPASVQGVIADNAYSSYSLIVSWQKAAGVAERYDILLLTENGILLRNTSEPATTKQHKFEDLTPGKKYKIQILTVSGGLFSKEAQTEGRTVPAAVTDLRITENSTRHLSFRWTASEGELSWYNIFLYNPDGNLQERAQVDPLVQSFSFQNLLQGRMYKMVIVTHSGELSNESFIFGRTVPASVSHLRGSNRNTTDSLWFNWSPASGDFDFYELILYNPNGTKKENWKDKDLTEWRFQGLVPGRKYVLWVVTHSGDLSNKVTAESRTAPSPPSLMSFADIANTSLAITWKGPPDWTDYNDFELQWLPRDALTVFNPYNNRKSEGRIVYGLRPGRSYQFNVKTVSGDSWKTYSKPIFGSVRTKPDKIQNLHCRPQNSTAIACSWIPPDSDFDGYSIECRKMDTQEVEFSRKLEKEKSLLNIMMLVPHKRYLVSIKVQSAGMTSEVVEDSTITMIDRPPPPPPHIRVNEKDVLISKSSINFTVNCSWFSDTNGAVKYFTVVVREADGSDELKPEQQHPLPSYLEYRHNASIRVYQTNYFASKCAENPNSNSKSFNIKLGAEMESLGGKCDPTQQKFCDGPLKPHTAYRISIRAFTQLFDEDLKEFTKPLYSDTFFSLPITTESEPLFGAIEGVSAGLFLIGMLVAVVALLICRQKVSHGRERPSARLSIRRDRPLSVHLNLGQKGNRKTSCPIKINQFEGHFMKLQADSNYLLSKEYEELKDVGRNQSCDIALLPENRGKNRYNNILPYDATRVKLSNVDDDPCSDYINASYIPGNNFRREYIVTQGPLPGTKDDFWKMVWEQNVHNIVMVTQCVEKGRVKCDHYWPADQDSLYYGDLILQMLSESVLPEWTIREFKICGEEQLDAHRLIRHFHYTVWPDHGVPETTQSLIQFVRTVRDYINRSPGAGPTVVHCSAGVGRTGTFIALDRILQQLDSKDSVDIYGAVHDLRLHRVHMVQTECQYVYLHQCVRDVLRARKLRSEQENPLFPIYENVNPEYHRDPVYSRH

Assays:
[1] = target: T1, Receptor-type tyrosine-protein phosphatase C (Homo sapiens, UniProt P08575); experiment: Inhibition of PTPRC
T1 sequence (P08575 whole entry): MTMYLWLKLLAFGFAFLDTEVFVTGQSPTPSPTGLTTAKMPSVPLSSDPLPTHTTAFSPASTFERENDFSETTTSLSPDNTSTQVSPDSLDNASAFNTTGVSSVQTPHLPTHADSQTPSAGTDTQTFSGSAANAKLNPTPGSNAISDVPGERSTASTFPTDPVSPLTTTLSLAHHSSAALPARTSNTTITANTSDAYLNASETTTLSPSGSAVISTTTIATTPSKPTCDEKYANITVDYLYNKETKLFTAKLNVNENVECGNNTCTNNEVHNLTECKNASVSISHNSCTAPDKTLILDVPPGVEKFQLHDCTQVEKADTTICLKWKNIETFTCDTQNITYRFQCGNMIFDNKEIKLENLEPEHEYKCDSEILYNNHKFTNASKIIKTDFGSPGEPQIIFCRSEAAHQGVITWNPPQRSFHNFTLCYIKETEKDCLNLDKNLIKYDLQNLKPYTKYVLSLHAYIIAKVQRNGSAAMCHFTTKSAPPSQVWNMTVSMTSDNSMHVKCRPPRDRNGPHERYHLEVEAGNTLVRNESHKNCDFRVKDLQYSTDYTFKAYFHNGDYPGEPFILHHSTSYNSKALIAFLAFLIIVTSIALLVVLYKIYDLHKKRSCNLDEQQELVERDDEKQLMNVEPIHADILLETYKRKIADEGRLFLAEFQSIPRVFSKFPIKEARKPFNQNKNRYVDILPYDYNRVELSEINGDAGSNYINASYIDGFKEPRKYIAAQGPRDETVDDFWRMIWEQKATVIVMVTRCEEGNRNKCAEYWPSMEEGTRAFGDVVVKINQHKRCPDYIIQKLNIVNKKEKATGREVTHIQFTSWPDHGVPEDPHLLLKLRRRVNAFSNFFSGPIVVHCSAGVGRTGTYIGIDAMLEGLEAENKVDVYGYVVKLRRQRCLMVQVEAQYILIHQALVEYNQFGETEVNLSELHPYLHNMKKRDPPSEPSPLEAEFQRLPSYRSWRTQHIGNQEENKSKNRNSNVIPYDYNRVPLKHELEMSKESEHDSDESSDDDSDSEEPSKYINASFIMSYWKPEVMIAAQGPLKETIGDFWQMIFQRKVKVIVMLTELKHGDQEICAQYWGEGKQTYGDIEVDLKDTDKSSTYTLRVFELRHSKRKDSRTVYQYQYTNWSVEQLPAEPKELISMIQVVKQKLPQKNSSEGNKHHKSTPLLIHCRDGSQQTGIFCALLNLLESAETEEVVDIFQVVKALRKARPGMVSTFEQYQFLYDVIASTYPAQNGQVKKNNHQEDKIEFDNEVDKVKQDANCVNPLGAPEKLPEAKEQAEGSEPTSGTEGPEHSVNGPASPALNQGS

[2] = target: Receptor-type tyrosine-protein phosphatase beta (Homo sapiens, UniProt P23467); experiment: Inhibition of PTPRB

O=C(O)C(=O)Nc1sc2c(c1C(=O)O)CCOC2
Ki [1]: 53 µM | Ki [2]: 11 µM
